In PMC2199025 (The Journal of Experimental Medicine, 1997):

Target: H-2K^b (Mus musculus, UniProt P01901)
Test: Peptide competition cytotoxicity assay
Assay type: cell-based, murine

Structure (SMILES)	pIC50
CSCC[C@H](NC(=O)[C@@H](N)C(C)C)C(=O)N[C@@H](CS)C(=O)N[C@H](C(=O)N[C@@H](Cc1ccc(O)cc1)C(=O)N[C@@H](CO)C(=O)N1CCC[C@H]1C(=O)N1CCC[C@H]1C(=O)N[C@@H](CC(C)C)C(=O)O)[C@@H](C)O [aa 119–127: VMCYSPPL]	4.93
CC(C)C[C@H](NC(=O)[C@H](C)NC(=O)[C@@H]1CCCN1C(=O)[C@H](Cc1ccc(O)cc1)NC(=O)[C@H](CC(N)=O)NC(=O)CNC(=O)[C@@H]1CCCN1C(=O)[C@H](C)NC(=O)[C@@H](N)Cc1ccccc1)C(=O)O [SV9: FAPGNYPAL, reference compound]	6.68

pIC50: −log10 of the molar value.
